# Patent US5057523A, “Dipeptide quinolone derivatives” (Abbott Laboratories, priority 1989, dated 1991)
# Tested on: E. Coli Juhl
# Experiment: Acute mouse protection test
# Format: in vivo
# Conditions: mice infected intraperitoneally with E. Coli JUHL, dosed at 1 and 5 hours post-infection
smiles,measurement,value
CCCC(N)C(=O)NC1CCN(c2nc3c(cc2F)c(=O)c(C(=O)O)cn3C2CC2)C1 (stereo not shown) [Example 26p],Oral (ED50),1.7 mg/kg/day
